Sequences of proteins named here, by UniProt entry; tags and fusion partners are left off. A change or cut given only in a name is not applied to a line headed by its entry.
UniProt P0A884: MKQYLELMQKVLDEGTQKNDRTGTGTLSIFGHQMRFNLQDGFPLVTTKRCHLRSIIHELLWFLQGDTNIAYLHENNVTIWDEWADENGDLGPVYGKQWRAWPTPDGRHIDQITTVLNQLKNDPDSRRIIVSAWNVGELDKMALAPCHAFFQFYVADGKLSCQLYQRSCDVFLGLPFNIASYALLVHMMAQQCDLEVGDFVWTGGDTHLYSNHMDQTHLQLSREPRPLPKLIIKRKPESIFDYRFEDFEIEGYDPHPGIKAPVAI

According to BindingDB's records for doi:10.1021/jm058234m (Duquesne University, 2005):

Molecular target: Thymidylate synthase (Escherichia coli (strain K12), UniProt P0A884)
Details: IC50 (nM)

**Q.** With Cc1nc2ccc(CN(C)c3ccc(C(=O)N[C@@H](CCC(=O)O)C(=O)O)s3)cc2c(=O)[nH]1 [(2S)-2-[(5-{methyl[(2-methyl-4-oxo-1,4-dihydroquinazolin-6-yl)methyl]amino}thiophen-2-yl)formamido]pentanedioic acid] as the molecule, how does the IC50 read?
**A.** Its IC50 is 5700 nM.
